# Data from US20220143081A1, “SYSTEM AND METHOD OF TREATING INFLAMMATORY LUNG DISEASES” (priority 2020, published 2022).
# This is a selection: effects in other tests are not listed, and their absence says nothing.
# Tested on: hematopoietic stem cells
# Details: mice receiving sublethal doses of irradiation
substance,measurement,value
tetrachlorodecaoxide,regeneration of hematopoietic stem cells,stimulated regeneration of hematopoietic stem cells
